{
  "sequences": {"note": "Protein sequences, listed by entry. Tags and fused reporters are not part of them. Residues count along the entry.", "UniProt P37231, 135-505": "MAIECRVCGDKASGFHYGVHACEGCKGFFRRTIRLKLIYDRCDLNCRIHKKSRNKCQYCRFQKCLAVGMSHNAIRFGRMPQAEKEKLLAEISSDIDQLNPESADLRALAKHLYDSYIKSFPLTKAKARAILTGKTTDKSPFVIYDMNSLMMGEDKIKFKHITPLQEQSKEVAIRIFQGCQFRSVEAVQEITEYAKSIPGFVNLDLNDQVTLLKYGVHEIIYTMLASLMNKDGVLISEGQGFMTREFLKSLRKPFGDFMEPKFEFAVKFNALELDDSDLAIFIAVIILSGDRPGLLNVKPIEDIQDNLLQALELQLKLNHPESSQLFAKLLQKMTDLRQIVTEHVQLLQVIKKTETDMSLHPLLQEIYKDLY"},
  "source": "paper PMC6332226",
  "about": "“Potent PPARγ Ligands from Swietenia macrophylla Are Capable of Stimulating Glucose Uptake in Muscle Cells” (Molecules, 2015)",
  "key": {"[1]": {"system": "differentiated 3T3-L1 adipocyte cells", "assay": "mRNA expression of PPARγ and adipogenic markers by quantitative RT-PCR", "assay_type": "cell-based", "settings": "50 nM rosiglitazone, 7 days, vs DMSO", "description": "Figure 5 The analysis of PPARγ and selected adipogenic gene expression in differentiated 3T3-L1 adipocyte cells with quantitative RT-PCR. […] The expression values were normalized against a housekeeping gene, β-actin.\nFor the gene expression study, mature 3T3-L1 adipocytes were lysed 7 days after the induction of cellular differentiation. The total RNA samples were prepared according to the manufacturer's protocol (TRIzol reagent, Invitrogen Life Technologies, Carlsbad, CA, USA). The mRNA expression of the target genes was measured by quantitative RT-PCR with an iCycler iQ5 PCR Thermal Cycler (Bio-Rad Laboratories, Hercules, CA, USA). The primers for the adipogenesis-related genes, adiponectin, adipsin, GLUT4 and PPARγ, were designed using Primer 3 software (Table 1). Real-time PCR was performed according to the manufacturer’s protocol (SYBR-Green One-Step Quantitative RT-PCR). Briefly, 5 ng of total RNA, 50 nM of each primer, iScript RT enzyme and the universal SYBR Green reaction mix (Bio-Rad Laboratories) were mixed well in a final volume of 30 µL. All the PCR reactions were performed as follows: 1 cycle of 50 °C for 2 min and 95 °C for 10 min, followed by 40 cycles of 95 °C for 15 s and 60 °C for 1 min. The PCR products were subjected to a melting-curve analysis. […]"}, "[2]": {"system": "3T3-L1 preadipocyte cells", "assay": "Adipocyte differentiation assay, Oil Red O staining of lipid droplets", "assay_type": "cell-based", "settings": "200 nM rosiglitazone, day 7", "description": "Figure 4 The semi-quantification of lipid droplets produced by differentiated 3T3-L1 cells at day 7 after the compound treatment. The quantification was performed by dissolving the cells in isopropanol and measuring the absorbance read out at 510 nm. […] The symbol ** denotes a significant difference at p < 0.01 compared with DMSO (Tukey’s test, n = 3).\n3T3-L1 and C2C12 cells were purchased from the American Type Culture Collection (Manassas, VA, USA). The 3T3-L1 and C2C12 cells were maintained in DMEM medium supplemented with 10% (v/v) bovine serum and 10% (v/v) fetal bovine serum (FBS), respectively. The differentiation of adipocytes was initiated two days after the cells reached confluence by adding 0.5 mM isobutyl methylxanthine (IBMX), 1 µM dexamethasone and 1 µg/mL insulin to DMEM containing 10% (v/v) FBS. Two days later, the differentiation medium was replaced by DMEM containing 10% (v/v) FBS and 1 µg/mL insulin. These differentiated cells were stabilized in DMEM + 10% (v/v) FBS for another 2 days. […]\nAdipocyte differentiation is one of the major cellular responses upon PPARγ activation. […] The trapped ORO between the lipid droplets was then dissolved in absolute isopropanol, and the absorbance of the dissolved ORO was semi-quantitatively measured by a SpectraMax M5 multi-detection microplate reader (Molecular Devices) at a wavelength of 510 nm."}, "[3]": {"target": "T1, recombinant PPARγ (Homo sapiens, UniProt P37231)", "T1 construct": "amino acid positions 107–477 for PPARγ; His tag (pET28a) (N); made in house; host or cells: E. coli BL21", "assay": "ELISA PPARγ-binding assay (ligand-dependent binding of PPARγ to p300 coactivator)", "settings": "highest binding; p300-coated plate, absorbance 405 nm"}},
  "data": [
    {"smiles": "CN(CCOc1ccc(CC2SC(=O)NC2=O)cc1)c1ccccn1", "note": "(stereo not drawn) [Rosiglitazone, rosiglitazone, reference compound]", "values": [
      {"measurement": "PPARγ mRNA expression, fold elevation", "setting": "[1]", "result": "five- to six"},
      {"measurement": "ORO stained lipid droplets, fold higher than vehicle (DMSO)", "setting": "[2]", "result": 2.8, "unit": "fold"},
      {"measurement": "fold increase of binding between PPARγ and coactivator compared to vehicle (DMSO)", "setting": "[3]", "result": 9, "unit": "fold"}
    ]}
  ]
}
